Earlier results on one substance are cited in patent US20060258754A1, “Method of treating endothelial dysfunction, oxidative stress and related diseases” (priority 2004, published 2006).

In this data set the test system is DNA. To be noted: pro-oxidant potential; cited from earlier work.

For the substance vitamin E, the “oxidative DNA damage” value is “cause oxidative DNA damage”.
